Measured values taken from publication PMC2952073 (Bioorganic & medicinal chemistry, 2010).

What was measured:
[1] = tested on: Gli2-mediated transcription (mGli2); test: Gli-Luc reporter assay in C3H10T1/2 cells transfected with Gli2; type: cell-based; conditions: Mus musculus, C3H 10T1/2, read-out: IC50, Gli2-mediated transcription
[2] = Parallel artificial membrane permeability assay; type: in vitro ADME; conditions: PAMPA, pH7.4

SMILES: CCCN(C(=O)C(C)c1cccc(C(=O)c2ccccc2)c1)c1ccc2cc[nH]c2c1 (stereo not drawn) [compound 33, 2-(3-Benzoylphenyl)-N-(1H-indol-6-yl)-N-propylpropanamide]
- IC50 [1]: 29 µM

SMILES: CCCN(C(=O)C(C)c1cccc(C(=O)c2ccccc2)c1)c1ccc2[nH]ccc2c1 (stereo not drawn) [compound 42, 2-(3-Benzoylphenyl)-N-(1H-indol-5-yl)-N-propylpropanamide]
- IC50 [1]: 21 µM

SMILES: CNC(=C[N+](=O)[O-])NCCSCc1ccc(CN(C)C)o1 [ranitidine]
- average P [2]: 5.5 ×10⁻⁶ cm/s
